Chains of the proteins cited; added tags and fusions are not shown. Residues count along the entry.
UniProt P16234, 24-1089 limits assumed: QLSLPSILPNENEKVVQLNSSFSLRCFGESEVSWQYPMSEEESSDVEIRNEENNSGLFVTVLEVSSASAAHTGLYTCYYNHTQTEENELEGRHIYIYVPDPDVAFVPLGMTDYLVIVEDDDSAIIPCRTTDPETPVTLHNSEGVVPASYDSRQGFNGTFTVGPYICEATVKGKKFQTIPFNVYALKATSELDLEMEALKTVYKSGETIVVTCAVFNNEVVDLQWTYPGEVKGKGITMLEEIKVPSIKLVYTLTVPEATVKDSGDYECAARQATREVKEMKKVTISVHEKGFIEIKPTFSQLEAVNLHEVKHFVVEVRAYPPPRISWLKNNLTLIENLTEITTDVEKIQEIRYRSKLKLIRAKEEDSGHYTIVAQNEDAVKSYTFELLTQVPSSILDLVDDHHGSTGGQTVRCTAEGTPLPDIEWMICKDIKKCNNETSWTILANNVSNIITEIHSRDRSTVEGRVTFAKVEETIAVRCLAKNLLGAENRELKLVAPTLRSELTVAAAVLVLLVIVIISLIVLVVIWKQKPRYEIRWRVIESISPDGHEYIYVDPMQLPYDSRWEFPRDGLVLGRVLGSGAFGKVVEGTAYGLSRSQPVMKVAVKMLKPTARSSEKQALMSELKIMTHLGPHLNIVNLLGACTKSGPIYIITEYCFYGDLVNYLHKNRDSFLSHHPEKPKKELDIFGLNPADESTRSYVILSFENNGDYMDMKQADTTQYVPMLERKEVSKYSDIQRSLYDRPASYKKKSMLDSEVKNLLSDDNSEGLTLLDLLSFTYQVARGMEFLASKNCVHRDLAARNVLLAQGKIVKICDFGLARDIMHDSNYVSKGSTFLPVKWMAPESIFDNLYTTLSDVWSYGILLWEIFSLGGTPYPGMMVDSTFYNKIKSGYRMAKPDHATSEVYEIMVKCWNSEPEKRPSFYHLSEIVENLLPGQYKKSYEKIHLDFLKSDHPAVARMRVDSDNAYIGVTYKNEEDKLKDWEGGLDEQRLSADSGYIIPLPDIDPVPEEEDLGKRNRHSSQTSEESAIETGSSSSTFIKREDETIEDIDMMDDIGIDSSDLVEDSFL
UniProt Q9UNQ0, whole entry: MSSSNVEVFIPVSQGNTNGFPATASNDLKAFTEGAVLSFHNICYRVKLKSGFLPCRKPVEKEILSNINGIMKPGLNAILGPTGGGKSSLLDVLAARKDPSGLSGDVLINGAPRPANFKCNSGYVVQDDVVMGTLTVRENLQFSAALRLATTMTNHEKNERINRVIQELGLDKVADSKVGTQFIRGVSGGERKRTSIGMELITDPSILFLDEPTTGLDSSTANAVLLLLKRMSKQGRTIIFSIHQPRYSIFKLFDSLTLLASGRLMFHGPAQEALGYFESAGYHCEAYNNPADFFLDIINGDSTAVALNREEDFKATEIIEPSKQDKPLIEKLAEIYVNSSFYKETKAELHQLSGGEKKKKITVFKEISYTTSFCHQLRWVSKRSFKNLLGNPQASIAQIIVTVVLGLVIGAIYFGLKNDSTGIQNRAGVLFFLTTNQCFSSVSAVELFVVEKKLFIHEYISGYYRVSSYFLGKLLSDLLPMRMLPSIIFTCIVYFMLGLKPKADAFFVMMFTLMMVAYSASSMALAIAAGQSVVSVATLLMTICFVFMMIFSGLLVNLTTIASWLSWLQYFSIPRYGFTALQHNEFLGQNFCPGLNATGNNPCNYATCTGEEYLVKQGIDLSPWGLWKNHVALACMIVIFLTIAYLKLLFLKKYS
UniProt P07333, 20-972 limits assumed: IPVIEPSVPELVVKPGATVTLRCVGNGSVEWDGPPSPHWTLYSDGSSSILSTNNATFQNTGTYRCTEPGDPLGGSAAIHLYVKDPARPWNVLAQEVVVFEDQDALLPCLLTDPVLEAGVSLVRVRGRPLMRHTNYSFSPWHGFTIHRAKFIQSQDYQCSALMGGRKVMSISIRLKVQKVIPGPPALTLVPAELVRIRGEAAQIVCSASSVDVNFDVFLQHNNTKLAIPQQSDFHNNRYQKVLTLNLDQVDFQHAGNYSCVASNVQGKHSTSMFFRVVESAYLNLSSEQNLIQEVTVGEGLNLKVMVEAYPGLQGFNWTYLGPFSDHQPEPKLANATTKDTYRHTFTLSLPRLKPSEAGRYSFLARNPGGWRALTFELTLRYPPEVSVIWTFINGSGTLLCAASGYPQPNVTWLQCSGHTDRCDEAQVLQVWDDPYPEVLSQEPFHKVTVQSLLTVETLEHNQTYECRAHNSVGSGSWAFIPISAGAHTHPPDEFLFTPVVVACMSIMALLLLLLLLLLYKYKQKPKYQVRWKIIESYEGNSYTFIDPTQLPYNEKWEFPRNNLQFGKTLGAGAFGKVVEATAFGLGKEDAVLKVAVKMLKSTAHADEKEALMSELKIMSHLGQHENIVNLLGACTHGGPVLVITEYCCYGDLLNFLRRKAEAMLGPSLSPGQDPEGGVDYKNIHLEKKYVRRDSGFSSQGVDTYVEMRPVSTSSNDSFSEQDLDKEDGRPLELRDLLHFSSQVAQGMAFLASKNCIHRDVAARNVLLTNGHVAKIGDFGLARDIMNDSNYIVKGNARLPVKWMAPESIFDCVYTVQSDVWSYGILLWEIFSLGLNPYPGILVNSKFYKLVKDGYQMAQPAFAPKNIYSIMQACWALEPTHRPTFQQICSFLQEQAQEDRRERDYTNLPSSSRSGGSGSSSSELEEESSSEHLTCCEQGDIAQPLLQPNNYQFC
UniProt P10721, 26-976 limits assumed: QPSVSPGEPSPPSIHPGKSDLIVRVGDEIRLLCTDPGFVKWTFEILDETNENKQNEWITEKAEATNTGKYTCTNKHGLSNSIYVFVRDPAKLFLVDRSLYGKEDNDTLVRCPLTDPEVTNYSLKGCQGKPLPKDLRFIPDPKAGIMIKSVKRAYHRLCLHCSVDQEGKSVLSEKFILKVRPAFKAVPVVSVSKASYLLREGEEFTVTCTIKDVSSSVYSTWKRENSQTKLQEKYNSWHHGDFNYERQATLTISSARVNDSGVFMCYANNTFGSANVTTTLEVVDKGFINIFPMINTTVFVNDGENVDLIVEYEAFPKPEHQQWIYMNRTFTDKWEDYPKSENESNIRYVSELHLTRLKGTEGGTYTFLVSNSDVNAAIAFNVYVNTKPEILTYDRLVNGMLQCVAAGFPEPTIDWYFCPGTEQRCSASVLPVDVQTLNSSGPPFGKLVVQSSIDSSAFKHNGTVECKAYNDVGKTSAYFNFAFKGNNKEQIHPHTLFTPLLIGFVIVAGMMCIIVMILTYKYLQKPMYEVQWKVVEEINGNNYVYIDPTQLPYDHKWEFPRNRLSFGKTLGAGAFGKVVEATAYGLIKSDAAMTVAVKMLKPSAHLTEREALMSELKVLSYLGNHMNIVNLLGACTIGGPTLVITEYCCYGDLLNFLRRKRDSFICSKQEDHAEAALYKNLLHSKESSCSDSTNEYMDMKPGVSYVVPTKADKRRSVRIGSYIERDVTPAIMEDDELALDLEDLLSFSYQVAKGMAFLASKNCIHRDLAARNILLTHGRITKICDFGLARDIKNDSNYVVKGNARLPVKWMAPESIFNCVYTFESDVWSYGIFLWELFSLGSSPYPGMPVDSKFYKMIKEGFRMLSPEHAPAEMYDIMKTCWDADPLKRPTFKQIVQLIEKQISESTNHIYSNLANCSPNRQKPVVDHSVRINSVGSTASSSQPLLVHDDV
UniProt P08183, whole entry: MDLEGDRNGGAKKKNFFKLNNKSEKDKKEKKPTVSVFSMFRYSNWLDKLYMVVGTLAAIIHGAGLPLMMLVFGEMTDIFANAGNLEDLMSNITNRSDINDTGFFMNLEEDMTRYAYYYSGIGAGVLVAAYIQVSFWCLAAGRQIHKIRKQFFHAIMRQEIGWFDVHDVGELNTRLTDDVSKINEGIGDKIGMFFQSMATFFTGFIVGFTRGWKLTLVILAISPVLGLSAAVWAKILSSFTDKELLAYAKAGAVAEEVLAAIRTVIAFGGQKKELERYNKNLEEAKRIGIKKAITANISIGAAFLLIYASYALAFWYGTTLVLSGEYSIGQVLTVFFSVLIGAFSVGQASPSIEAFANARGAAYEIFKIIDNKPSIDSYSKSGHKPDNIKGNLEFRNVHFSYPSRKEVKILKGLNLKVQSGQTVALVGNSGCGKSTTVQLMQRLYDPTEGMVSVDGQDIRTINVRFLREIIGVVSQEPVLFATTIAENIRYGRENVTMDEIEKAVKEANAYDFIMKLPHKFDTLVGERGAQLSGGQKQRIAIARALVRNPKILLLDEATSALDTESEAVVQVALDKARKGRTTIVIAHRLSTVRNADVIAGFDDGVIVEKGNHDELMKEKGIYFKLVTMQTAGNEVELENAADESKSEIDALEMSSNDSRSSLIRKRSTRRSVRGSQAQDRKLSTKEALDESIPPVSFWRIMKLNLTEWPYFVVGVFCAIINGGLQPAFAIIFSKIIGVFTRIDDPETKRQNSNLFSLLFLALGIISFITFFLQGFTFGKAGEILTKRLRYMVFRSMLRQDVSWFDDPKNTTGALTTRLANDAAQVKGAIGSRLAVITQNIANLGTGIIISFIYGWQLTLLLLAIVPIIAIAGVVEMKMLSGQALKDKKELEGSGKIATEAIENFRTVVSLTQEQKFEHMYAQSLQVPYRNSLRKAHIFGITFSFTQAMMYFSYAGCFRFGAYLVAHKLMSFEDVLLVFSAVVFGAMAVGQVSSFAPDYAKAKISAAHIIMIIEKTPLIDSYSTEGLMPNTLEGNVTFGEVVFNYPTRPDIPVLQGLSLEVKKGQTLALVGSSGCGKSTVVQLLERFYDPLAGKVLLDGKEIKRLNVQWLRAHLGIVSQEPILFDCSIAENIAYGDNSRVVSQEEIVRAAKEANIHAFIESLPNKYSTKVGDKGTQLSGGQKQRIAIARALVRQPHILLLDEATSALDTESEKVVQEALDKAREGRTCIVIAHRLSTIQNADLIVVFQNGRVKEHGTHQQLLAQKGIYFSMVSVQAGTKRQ

In patent US20240254119A1 (THIRD HARMONIC BIO, INC., priority 2022, published 2024):

Legend:
[1] = biological target: T1, PDGFRα (Homo sapiens, UniProt P16234); assay: Caliper biochemical assay, PDGFRα; details: read-out: PDGFRα Biochemical Avg IC50, Table 6
[2] = tested on: Caco-2 cells; assay: Caco-2 permeability assay; details: for Caco-2: Papp A-B: Caco-2, apical to basolateral
[3] = tested on: CYP3A4; assay: Hepatocyte CYP induction assay, CYP3A4 gene expression; details: human hepatocytes, donor two
[4] = biological target: BCRP (BCRP-MDCKII monolayer) (Homo sapiens, UniProt Q9UNQ0); assay: MDCKII-BCRP bidirectional transport assay; details: for MDCK-BCRP: Papp A-B: apical to basolateral
[5] = biological target: T2, CSF-1R (Homo sapiens, UniProt P07333); assay: Caliper biochemical assay, CSF-1R; details: read-out: CSF-1R Biochemical IC50, Table 6
[6] = Kinetic solubility assay; details: 50 mM PB (pH 7.4), shaken 24 hours at RT
[7] = tested on: KIT phosphorylation in M-07e cells; assay: Cell-based KIT phosphorylation in M-07e cells by pKIT ELISA; details: read-out: M-07e pKIT IC50, SCF stimulation
[8] = Three time point assay for plasma, brain and testes distribution after oral dosing; details: rat, time point 2 h
[9] = biological target: T3, wtKIT (Homo sapiens, UniProt P10721); assay: Caliper biochemical assay, wtKIT; details: read-out: KIT Biochemical IC50 avg, Table 6
[10] = biological target: MDR1 (MDR1-MDCKII cells) (Homo sapiens, UniProt P08183); assay: Permeability in MDR1-MDCKII cells; details: for MDCKII-MDR1: Papp A-B: MDCKII-MDR1, apical to basolateral
[11] = biological target: T2, CSF-1R; assay: HTRF biochemical assay, CSF-1R; details: read-out: CSF-1R Biochemical IC50 avg, Table 4
[12] = biological target: T1, PDGFRα; assay: HTRF biochemical assay, PDGFRα; details: read-out: PDFGRα Biochemical IC50 avg, Table 4
[13] = biological target: T3, wtKIT; assay: HTRF biochemical assay, wtKIT (phosphorylation of a peptide substrate); details: read-out: KIT Biochemical IC50 avg, Table 4

Compound | IC50 [1] [µM] | Caco-2: Efflux Ratio [2] | Caco-2: Papp A-B [2] | CYP 3A4 induction mRNA: Mean fold at 10 μM [3] | MDCK-BCRP: Efflux Ratio [4] | MDCK-BCRP: Papp A-B [4] | IC50 [5] [nM] | Solubility (μM) [6] | IC50 [7] [nM] | Brain concentration [8] [ng/g] | Kp brain/plasma [8] | Kp testes/plasma [8] | Plasma concentration [8] [ng/mL] | Testes concentration [8] [ng/g] | IC50 [9] [nM] | MDCKII-MDR1: Efflux Ratio [10] | MDCKII-MDR1: Papp A-B [10] | IC50 [11] [nM] | IC50 [12] [nM] | IC50 [13] [nM]
Cc1ccc(-c2noc([C@@H]3CC[C@@H]3C#N)n2)cc1NC(=O)c1cnc2ccccn12 (relative stereo) | 0.5 to 5 | 2.42 | 11.6 10^−6 cm/s | +++ (induction fold of greater than 3-fold to less than or equal to 10-fold) | 3.83 | 7.64 10^−6 cm/s | 50 to 500 | *** (a solubility greater than 2 μM and less than or equal to 10 μM) | < 50 | 289 | 0.15 | 0.38 | 1920 | 732 | < 50 | 1.35 | 17.7 10^−6 cm/s | – | – | –
Cc1ccc(-c2noc([C@H]3C[C@H]3F)n2)cc1NC(=O)c1cnc2ccccn12 | 0.5 to 5 | – | – | ++ (induction fold of greater than 2-fold to less than or equal to 3-fold) | – | – | 50 to 500 | – | < 50 | – | – | – | – | – | < 50 | – | – | 50 to 500 | 500 to 5000 | < 50
Cc1ccc(-c2noc(C3CCN3CCC(F)(F)F)n2)cc1NC(=O)c1cnc2ccccn12 (centres unmarked) | 0.5 to 5 | 0.44 | 18.1 10^−6 cm/s | – | – | – | 50 to 500 | *** (a solubility greater than 2 μM and less than or equal to 10 μM) | < 50 | – | – | – | – | – | < 50 | 0.73 | 22 10^−6 cm/s | – | – | –
COc1ccc2ncc(C(=O)Nc3cc(-c4noc(C5CC5F)n4)ccc3Cl)n2c1 (single isomer, unassigned) | – | – | – | +++ (induction fold of greater than 3-fold to less than or equal to 10-fold) | – | – | – | **** (a solubility less than or equal to 2 μM) | < 50 | – | – | – | – | – | – | – | – | < 50 | 50 to 500 | < 50
CCCS(=O)(=O)N1CC(c2nc(-c3ccc(C)c(NC(=O)c4cnn5ccccc45)c3)no2)C1 | 5 to 30 | 2.37 | 12 10^−6 cm/s | – | 2.55 | 8.23 10^−6 cm/s | 50 to 500 | **** (a solubility less than or equal to 2 μM) | < 50 | – | – | – | – | – | < 50 | 2.28 | 11 10^−6 cm/s | – | – | –
Cc1ccc(-c2noc(CC(O)C(F)F)n2)cc1NC(=O)c1cnc2ccccn12 (centres unmarked) [Compound I-476] | 0.5 to 5 | 5.15 | 5.78 10^−6 cm/s | – | – | – | < 50 | **** (a solubility less than or equal to 2 μM) | < 50 | 143 | 0.11 | 0.5 | 1370 | 683 | < 50 | 2.24 | 9.15 10^−6 cm/s | 50 to 500 | 500 to 5000 | < 50
O=C(Nc1cccc(-c2noc([C@H]3C[C@@H]3F)n2)c1F)c1cnc2ccccn12 | 5 to 30 | 0.55 | 27.4 10^−6 cm/s | – | 0.72 | 17.7 10^−6 cm/s | 50 to 500 | *** (a solubility greater than 2 μM and less than or equal to 10 μM) | 50 to 500 | – | – | – | – | – | < 50 | 0.67 | 23.6 10^−6 cm/s | – | – | –
Cc1ccc(-c2noc([C@H]3C[C@@H]3F)n2)cc1NC(=O)c1cnc2n1CCCC2 | – | – | – | + (induction fold of less than or equal to 2-fold) | – | – | – | * (a solubility greater than 50 μM) | 50 to 500 | – | – | – | – | – | – | – | – | 500 to 5000 | 5000 to 30000 | 50 to 500
Cc1ccc(-c2noc(C3CC3(F)Cl)n2)cc1NC(=O)c1cnc2ccccn12 (centres unmarked) | – | – | – | – | – | – | – | **** (a solubility less than or equal to 2 μM) | < 50 | – | – | – | – | – | – | – | – | 50 to 500 | 500 to 5000 | < 50
Cc1ccc(-c2noc([C@H]3C[C@@H]3F)n2)cc1NC(=O)c1cnc2cc(COC3COC3)ccn12 | – | – | – | – | – | – | – | **** (a solubility less than or equal to 2 μM) | < 50 | – | – | – | – | – | – | – | – | < 50 | 50 to 500 | < 50
